# According to patent US20180369230A1, “TARGETED SELECTION OF PATIENTS FOR TREATMENT WITH SPECIFIC CORTISTATIN DERIVATIVES” (President and Fellows of Harvard College, priority 2015, published 2018):
# Protein sequences, listed by entry. Tags and fused reporters are not part of them. Lines headed by an entry give the natural chain unless they say otherwise; changes in a name come on top.
# UniProt P49336: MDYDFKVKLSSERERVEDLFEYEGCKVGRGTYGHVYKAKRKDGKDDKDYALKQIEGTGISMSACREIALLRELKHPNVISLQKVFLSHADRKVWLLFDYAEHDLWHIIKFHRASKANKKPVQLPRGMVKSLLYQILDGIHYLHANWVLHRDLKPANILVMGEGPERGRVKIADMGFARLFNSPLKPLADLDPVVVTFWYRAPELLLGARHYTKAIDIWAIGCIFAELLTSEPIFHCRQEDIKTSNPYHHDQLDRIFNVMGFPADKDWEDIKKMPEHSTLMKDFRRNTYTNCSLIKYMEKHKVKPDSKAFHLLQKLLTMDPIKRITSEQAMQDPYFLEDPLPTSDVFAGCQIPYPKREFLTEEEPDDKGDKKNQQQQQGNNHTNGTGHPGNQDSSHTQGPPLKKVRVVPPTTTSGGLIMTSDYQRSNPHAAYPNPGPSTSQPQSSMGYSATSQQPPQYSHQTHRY
# Experiments:
# [1] = tested on: native kinases in MOLM-14 cell lysate; conditions: 1000 nM
# Procedure: Native kinome profiling was performed with MOLM-14 cell lysate according to the KiNativ Method by ActivX Biosciences. For each peptide quantified, the change in mass spectrometry signal for the treated samples relative to the signal for the control samples was expressed as percentage inhibition.
# [2] = tested on: SET-2 and UKE-1 cells; experiment: SET-2/UKE-1 synergy assay; assay type: cell-based; conditions: ruxolitinib to CA 1 to 1 or 10 to 1, Fa=0.5
# Procedure: SET-2 and UKE-1 cells were co-treated with constant ratios of ruxolitinib to CA, 1 to 1 or 10 to 1, in a 96-well growth assay format with a range of 2-fold dose dilutions of compounds. SET-2 and UKE-1 cells were also treated with ruxolitinib alone or CA alone in a 2-fold dilution series. The Chou-Talalay combination index values at 50% growth inhibition (Fa=0.5) were determined using CalcuSyn software (see Chou, T. C. Cancer Res. 2010 Jan. 15; 70(2):440-6) (FIG. 5).
# [3] = target: T1, CDK8/Cyclin C (Homo sapiens, UniProt P49336); experiment: In vitro radiometric protein kinase assay; assay type: biochemical; conditions: 1.0 μM ATP; FIG. 8
# T1 construct: purchased ProQinase GmbH
# [4] = tested on: 294 recombinant kinases; conditions: 600 nM
substance,measurement,setting,value
Cortistatin A,"kinase selectivity, native kinase % inhibition",[1],selectively inhibits CDK8/19
same,"synergy with JAK1/2 inhibitor ruxolitinib, inhibition of proliferation (Chou-Talalay combination index)",[2],synergizes
same,inhibition of CDK8/Cyclin C kinase activity,[3],potently inhibits
same,"kinase selectivity, kinase activity percent remaining",[4],selectively inhibits CDK8/19
